Where a chain is given by its changes, count along the chain named.
Columns and labels:
Assay in all cases: cell-based
[1] = target: T1, rKv4.3 (Rattus norvegicus, UniProt Q62897); details: SEM
T1 construct: expressed in transfected cells; host or cells: HEK293T
T1 sequence (Q62897 1-655): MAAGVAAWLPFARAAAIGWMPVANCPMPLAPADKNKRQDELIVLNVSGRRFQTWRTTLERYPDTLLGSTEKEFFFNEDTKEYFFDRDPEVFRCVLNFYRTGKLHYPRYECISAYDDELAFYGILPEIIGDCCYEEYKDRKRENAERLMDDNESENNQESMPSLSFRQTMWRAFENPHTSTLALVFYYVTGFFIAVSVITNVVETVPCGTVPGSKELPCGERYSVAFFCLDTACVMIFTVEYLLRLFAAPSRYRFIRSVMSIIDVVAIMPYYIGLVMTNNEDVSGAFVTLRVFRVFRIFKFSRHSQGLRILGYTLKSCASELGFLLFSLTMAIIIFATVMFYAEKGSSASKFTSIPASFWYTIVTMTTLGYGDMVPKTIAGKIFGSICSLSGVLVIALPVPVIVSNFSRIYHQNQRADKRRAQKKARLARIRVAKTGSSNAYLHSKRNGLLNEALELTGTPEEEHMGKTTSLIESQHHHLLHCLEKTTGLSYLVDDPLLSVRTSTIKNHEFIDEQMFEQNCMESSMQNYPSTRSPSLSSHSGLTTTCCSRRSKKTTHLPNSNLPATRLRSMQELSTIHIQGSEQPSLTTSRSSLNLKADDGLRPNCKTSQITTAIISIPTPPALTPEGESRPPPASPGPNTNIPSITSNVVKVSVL

By UniProt entry, the sequences of proteins in these tests, tags left out. Chains listed by the source or under a name are the forms on record and can include a tag or linker.
UniProt Q15858, other isoform, or with tags, fused parts or gaps: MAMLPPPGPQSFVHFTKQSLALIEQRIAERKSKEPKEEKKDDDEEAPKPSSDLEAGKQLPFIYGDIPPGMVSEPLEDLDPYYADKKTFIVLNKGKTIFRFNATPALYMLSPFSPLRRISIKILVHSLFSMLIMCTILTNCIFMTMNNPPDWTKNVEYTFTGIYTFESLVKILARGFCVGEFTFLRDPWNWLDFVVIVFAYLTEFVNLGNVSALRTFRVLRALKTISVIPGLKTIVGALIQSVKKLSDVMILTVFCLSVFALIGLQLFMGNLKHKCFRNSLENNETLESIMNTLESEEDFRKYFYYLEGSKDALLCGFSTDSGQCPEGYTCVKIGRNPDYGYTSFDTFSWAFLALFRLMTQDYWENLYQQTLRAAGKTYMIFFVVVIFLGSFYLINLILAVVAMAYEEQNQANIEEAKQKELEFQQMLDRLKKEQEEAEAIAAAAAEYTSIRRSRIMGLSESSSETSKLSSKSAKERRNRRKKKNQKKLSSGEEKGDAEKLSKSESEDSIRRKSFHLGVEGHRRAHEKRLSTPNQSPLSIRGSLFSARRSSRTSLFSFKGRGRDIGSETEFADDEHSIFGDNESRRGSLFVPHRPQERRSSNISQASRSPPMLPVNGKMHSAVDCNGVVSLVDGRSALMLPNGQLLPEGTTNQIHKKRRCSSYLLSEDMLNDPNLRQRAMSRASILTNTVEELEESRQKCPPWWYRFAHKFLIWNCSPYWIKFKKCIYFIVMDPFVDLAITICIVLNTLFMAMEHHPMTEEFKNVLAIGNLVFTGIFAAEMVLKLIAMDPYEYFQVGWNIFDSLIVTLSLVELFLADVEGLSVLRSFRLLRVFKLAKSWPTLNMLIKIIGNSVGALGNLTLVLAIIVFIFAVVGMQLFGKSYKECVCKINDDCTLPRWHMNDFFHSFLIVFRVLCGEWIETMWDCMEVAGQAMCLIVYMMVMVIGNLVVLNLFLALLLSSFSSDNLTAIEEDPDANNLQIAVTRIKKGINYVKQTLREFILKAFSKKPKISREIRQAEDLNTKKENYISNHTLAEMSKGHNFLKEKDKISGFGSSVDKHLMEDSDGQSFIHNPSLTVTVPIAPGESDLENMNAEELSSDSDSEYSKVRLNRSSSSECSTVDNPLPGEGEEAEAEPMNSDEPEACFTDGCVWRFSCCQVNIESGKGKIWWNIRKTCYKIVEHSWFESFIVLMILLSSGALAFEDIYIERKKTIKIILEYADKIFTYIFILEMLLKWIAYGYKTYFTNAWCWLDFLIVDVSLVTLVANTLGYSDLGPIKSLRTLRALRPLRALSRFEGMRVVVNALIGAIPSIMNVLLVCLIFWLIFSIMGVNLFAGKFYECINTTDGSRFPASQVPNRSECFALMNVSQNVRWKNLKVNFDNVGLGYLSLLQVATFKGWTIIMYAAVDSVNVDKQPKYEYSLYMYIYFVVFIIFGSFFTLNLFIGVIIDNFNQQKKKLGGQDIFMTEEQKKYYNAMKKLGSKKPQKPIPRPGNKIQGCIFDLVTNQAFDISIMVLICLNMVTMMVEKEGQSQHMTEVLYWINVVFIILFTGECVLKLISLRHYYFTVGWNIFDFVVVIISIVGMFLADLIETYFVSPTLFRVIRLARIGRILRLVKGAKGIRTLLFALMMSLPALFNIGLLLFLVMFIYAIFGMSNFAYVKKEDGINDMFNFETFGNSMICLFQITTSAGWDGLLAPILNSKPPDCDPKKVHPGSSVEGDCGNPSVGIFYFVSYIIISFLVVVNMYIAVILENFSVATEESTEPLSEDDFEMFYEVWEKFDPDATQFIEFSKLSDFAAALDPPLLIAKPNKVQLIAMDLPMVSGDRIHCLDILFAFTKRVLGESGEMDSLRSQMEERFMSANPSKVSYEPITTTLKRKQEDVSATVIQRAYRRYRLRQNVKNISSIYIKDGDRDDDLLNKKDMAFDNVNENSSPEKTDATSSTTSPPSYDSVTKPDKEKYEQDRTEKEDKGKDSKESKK

[2] = target: T2, rKv4.2 E283K (Rattus norvegicus, UniProt Q63881, E283K); details: SEM
T2 construct: expressed in transfected cells; host or cells: HEK293T
T2 sequence (Q63881 1-630 E283K): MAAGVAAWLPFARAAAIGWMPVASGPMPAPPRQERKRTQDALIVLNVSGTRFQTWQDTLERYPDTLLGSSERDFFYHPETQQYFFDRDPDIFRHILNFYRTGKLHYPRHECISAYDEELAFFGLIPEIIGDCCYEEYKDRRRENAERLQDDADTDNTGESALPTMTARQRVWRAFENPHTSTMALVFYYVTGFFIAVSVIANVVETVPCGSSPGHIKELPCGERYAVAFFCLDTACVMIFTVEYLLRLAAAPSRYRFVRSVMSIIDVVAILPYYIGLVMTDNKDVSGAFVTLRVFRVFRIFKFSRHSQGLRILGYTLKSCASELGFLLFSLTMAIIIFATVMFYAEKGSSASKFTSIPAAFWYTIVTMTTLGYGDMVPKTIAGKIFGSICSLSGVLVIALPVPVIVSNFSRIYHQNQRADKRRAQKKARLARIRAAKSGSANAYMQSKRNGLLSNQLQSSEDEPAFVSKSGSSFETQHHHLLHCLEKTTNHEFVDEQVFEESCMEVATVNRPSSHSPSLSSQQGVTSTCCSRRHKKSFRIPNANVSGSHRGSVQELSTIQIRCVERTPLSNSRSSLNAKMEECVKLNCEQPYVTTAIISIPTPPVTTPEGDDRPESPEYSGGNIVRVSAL

[3] = target: T3, hNav1.7 (Homo sapiens, UniProt Q15858); details: IC50 for hNav1.7; SEM
T3 construct: expressed in transfected cells; host or cells: HEK293T

[4] = target: T4, rKv4.2 M279A (Rattus norvegicus, UniProt Q63881, M279A); details: SEM
T4 construct: expressed in transfected cells; host or cells: HEK293T
T4 sequence (Q63881 1-630 M279A): T2 sequence (Q63881 1-630 E283K) with M279A, K283E

[5] = target: T5, rKv4.2 (Rattus norvegicus, UniProt Q63881); details: SEM
T5 construct: expressed in transfected cells; host or cells: HEK293T
T5 sequence (Q63881 1-630): T2 sequence (Q63881 1-630 E283K) with K283E

`CC[C@H](C)[C@H](NC(=O)[C@H](CCCCN)NC(=O)[C@H](Cc1ccc(O)cc1)NC(=O)[C@H](CCCCN)NC(=O)[C@@H]1CSSC[C@@H]2NC(=O)[C@H](CCC(=O)O)NC(=O)[C@H](CC(=O)O)NC(=O)[C@H](CCCCN)NC(=O)CNC(=O)[C@@H]3CCCN3C(=O)[C@H]([C@@H](C)O)NC(=O)[C@@H]3CSSC[C@H](NC(=O)[C@H](C(C)C)NC(=O)[C@H](Cc4c[nH]cn4)NC(=O)[C@H](CC(N)=O)NC(=O)[C@@H]4CCCN4C(=O)[C@H](CSSC[C@H](NC(=O)[C@H](C)N)C(=O)N[C@@H](CCCCN)C(=O)NCC(=O)N[C@@H]([C@@H](C)CC)C(=O)N[C@@H](Cc4ccccc4)C(=O)N[C@@H](C(C)C)C(=O)N[C@@H]([C@@H](C)O)C(=O)N3)NC2=O)C(=O)N[C@@H](CO)C(=O)N[C@@H](CO)C(=O)N[C@@H](CCCCN)C(=O)N[C@@H](Cc2c[nH]cn2)C(=O)N[C@@H](CCCCN)C(=O)N[C@@H](Cc2c[nH]c3ccccc23)C(=O)N1)C(N)=O` [Cl6b] was tested, and the IC50 [1] was 0.0825 ± 0.0111 µM, the IC50 [2] was 1.64 ± 0.386 µM and the IC50 [3] was 0.0769 ± 0.0041 µM. It also gave an IC50 [4] of 0.309 ± 0.126 µM and an IC50 [5] of 0.114 ± 0.032 µM.
